Tested on: A2780 human ovarian cancer cells
Test: Cell viability on coincubation with sodium formate (SRB)
Settings: 0 mM formate; complex at 1/3 × IC50, 24 h + 72 h recovery

Substance | Percentage of Cell Viability
[Ru(η^6-Ph(CH2)3-ethylenediamine-N-Ms)Cl] [Complex 1] | 96%
[Ru(η^6-Ph(CH2)3-ethylenediamine-N-Nb)Cl] [Complex 4] | 95%
[Ru(η^6-Ph(CH2)3-ethylenediamine-N-Tf)Cl] [Complex 3] | 79 ± 2%

Same assay, conditions: 0.5 mM formate; complex at 1/3 × IC50, 24 h + 72 h recovery

Substance | Percentage of Cell Viability
[Ru(η^6-Ph(CH2)3-ethylenediamine-N-Ms)Cl] [Complex 1] | 91 ± 2%
[Ru(η^6-Ph(CH2)3-ethylenediamine-N-Nb)Cl] [Complex 4] | 88 ± 2%
[Ru(η^6-Ph(CH2)3-ethylenediamine-N-Tf)Cl] [Complex 3] | 75 ± 2%

Same assay, conditions: 1.0 mM formate; complex at 1/3 × IC50, 24 h + 72 h recovery

Substance | Percentage of Cell Viability
[Ru(η^6-Ph(CH2)3-ethylenediamine-N-Ms)Cl] [Complex 1] | 78 ± 3%
[Ru(η^6-Ph(CH2)3-ethylenediamine-N-Nb)Cl] [Complex 4] | 85 ± 2%
[Ru(η^6-Ph(CH2)3-ethylenediamine-N-Tf)Cl] [Complex 3] | 72 ± 3%

Same assay, conditions: 2.0 mM formate; complex at 1/3 × IC50, 24 h + 72 h recovery

Substance | Percentage of Cell Viability
[Ru(η^6-Ph(CH2)3-ethylenediamine-N-Ms)Cl] [Complex 1] | 74%
[Ru(η^6-Ph(CH2)3-ethylenediamine-N-Nb)Cl] [Complex 4] | 81%
[Ru(η^6-Ph(CH2)3-ethylenediamine-N-Tf)Cl] [Complex 3] | 63 ± 2%

Tested on: not given
Test: not given
Settings: 2 mM complex, GSH 10 mol equiv, 24 h incubation at 310 K
Experimental: A second set of experiments investigated the time dependence of reactions of 2 with GSH (20 mM) in the mole ratio of 1/20, monitored by ^1H NMR (600 MHz) spectroscopy under conditions similar to those above (pH* 7.2, 310 K), from 5 min to 24 h.

stability of SG adduct after 24 h | Substance
decomposed after 24 h | [Ru(η^6-Ph(CH2)3-ethylenediamine-N-Ms)Cl] [Complex 1]
appeared to be stable | [Ru(η^6-Ph(CH2)3-ethylenediamine-N-Tf)Cl] [Complex 3]

Substance | stability of SG adduct after 24 h
[Ru(η^6-Ph(CH2)3-ethylenediamine-N-Nb)Cl] [Complex 4] | appeared to be stable

From article PMC5989272, “Transfer Hydrogenation and Antiproliferative Activity of Tethered Half-Sandwich Organoruthenium Catalysts” (Organometallics, 2018)
